Test results as given in PubChem BioAssay AID1224863 (Southern Research Institute, 2016).
“And” between values parts separate entries of the source, which are not always exact repeats. Equal entries are not always repeated. Among all 10,000 compounds or so, about 15 (0.1%) were called active.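 Rule for the calls: active = highest signal at least 8 times the median of untreated cell-only control wells at some dose; inactive = the rest.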 These entries were drawn from the full list.

The chains behind the UniProt entries cited, without tags or fusion partners. A line that says so, or that is headed by a name, gives the form on record, which may keep a tag or linker.
UniProt P13569, with tags, fused parts or gaps F508del: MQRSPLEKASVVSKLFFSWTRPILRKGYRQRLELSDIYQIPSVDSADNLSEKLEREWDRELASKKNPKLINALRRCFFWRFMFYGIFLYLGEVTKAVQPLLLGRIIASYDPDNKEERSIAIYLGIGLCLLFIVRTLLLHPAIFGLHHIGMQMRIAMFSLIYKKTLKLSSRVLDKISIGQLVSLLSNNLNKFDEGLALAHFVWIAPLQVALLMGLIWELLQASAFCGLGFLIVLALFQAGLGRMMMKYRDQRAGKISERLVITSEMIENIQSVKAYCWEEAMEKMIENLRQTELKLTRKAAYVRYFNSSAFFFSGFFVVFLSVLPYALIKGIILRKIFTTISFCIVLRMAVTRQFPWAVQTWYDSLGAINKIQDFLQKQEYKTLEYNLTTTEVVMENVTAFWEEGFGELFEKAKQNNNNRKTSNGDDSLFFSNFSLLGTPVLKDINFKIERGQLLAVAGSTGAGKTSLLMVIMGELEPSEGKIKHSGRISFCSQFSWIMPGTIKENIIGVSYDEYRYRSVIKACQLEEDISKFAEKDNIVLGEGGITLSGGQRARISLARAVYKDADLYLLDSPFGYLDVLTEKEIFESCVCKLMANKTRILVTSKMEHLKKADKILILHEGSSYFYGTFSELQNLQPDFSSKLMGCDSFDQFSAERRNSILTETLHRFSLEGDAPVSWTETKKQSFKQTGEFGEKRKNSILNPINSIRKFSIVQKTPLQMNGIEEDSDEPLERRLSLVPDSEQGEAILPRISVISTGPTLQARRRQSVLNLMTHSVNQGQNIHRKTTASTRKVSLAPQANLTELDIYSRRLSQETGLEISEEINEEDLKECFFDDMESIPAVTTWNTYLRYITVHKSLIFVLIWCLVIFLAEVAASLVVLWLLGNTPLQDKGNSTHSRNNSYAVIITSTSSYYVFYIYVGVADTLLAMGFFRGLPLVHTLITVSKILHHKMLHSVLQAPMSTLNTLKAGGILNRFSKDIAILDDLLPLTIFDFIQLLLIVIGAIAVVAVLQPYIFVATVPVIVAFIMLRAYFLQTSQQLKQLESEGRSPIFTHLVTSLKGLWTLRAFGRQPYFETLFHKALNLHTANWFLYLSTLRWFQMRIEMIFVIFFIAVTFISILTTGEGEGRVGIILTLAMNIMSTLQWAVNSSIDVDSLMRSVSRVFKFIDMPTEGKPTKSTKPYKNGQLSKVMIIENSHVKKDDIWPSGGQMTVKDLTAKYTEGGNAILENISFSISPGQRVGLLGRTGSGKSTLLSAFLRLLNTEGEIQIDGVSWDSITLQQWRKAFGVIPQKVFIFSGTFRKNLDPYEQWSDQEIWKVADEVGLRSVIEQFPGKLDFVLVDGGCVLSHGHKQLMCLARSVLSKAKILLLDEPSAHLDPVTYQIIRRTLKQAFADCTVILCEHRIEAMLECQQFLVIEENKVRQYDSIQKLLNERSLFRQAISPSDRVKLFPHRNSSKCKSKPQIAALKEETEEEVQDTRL

Tests used:
[1] = total CFTR protein upregulators, primary screen, cell-based, HeLa F508del-CFTR, immunofluorescence, viability (AID 1224863); conditions: 24 h, stronger effect = higher value; min viability: measured here: HeLa viability, alamarBlue, dose 20, library dosed in µg/mL unless noted; viability: measured here: primary viability 10 ug/mL, library dosed in µg/mL unless noted;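 for fold increase: total CFTR protein by anti-CFTR immunofluorescence in fixed cells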;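 for max fold increase: total CFTR protein by anti-CFTR immunofluorescence in fixed cells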
[2] = target: Cystic fibrosis transmembrane conductance regulator (Homo sapiens) (UniProt P13569); experiment: as above; conditions: 24 h; fold increase: measured here: primary screen 10 ug/mL, library dosed in µg/mL, stronger effect = higher value unless noted; max fold increase: dose 10, library dosed in µg/mL, stronger effect = higher value unless noted; outcome: library dosed in µg/mL unless noted

Row | Structure (SMILES) | viability [1] | fold increase [2] | outcome [2] | min viability [1] | max fold increase [2]
1 | Clc1ccc(-n2nnnc2SCCCc2nc3ccccc3o2)cc1 | 84% | 0.85 | inactive |  | 
2 | Cc1nn(-c2ccccc2)c2c1CC(C#N)(c1nc3ccccc3s1)C1CCCN21 (stereo unspecified) | 89% | 1.29 | inactive |  | 
3 | O=S(=O)(NCCc1ccc2c(c1)OCCO2)c1ccc2c(c1)CCC2 | 95% | 0.9 | inactive |  | 
4 | C=CCn1c(SC(C)c2nnnn2-c2ccccc2)nnc1-c1ccoc1C (stereo unspecified) | 93% | 1.01 | inactive |  | 
5 | Cc1nc(N2CCC(NS(C)(=O)=O)CC2)c2c3c(sc2n1)CCC3 | 85% | 0.99 | inactive |  | 
6 | CS(=O)(=O)CCC(=O)Nc1nc2c(s1)CCC2 | 92% | 1.13 | inactive |  | 
7 | O=S(=O)(c1ccc(S(=O)(=O)N(Cc2ccc3c(c2)OCO3)C2CCCC2)cc1)N1CCCC1 | 98% | 0.96 | inactive |  | 
8 | CNC(=O)CN(C)c1ncnc2sc3c(c12)CCCC3 | 94% | 1.01 | inactive |  | 
9 | Nc1nccnc1C(=O)N1CCN(c2nccs2)CC1 | 79% | 1.03 | inactive |  | 
10 | CC[C@H](C)[C@H]1O[C@]2(CC[C@@H]1C)C[C@@H]1C[C@@H](C/C=C(\C)[C@@H](O[C@H]3C[C@H](OC)[C@@H](O[C@H]4C[C@H](OC)[C@@H](O)[C@H](C)O4)[C@H](C)O3)[C@@H](C)/C=C/C=C3\CO[C@@H]4[C@H](O)C(C)=C[C@@H](C(=O)O1)[C@]34O)O2 | 25% [measured here: primary viability 25 uM, at 25 µM, library dosed in µM] and 48% [measured here: primary viability 25 uM, at 25 µM, library dosed in µM] | 0.61 [measured here: primary screen single dose 25 uM, at 25 µM, library dosed in µM, stronger effect = higher value] and 0.72 [measured here: primary screen single dose 25 uM, at 25 µM, library dosed in µM, stronger effect = higher value] | inactive [library dosed in µM] |  | 
11 | COCCN1C(=O)C(=O)/C(=C(/O)c2ccccc2)C1c1cccc(Oc2ccccc2)c1 (stereo unspecified) | 106% | 0.99 | inactive |  | 
12 | Cc1cc(C(=O)Cn2nnn(-c3cccs3)c2=O)c(C)n1CCc1cccs1 | 91% | 0.85 | inactive |  | 
13 | O=C(CSc1nc(O)cc(=O)n1C1CCCC1)NC12CC3CC(CC(C3)C1)C2 | 85% | 0.96 | inactive |  | 
14 | CCSc1nnc(SC(C)c2ccc(F)cc2)s1 (stereo unspecified) | 77% | 0.8 | inactive |  | 
15 | O=C(CC1CC2CCC1C2)N1CCN(c2cnccn2)CC1 (stereo unspecified) | 83% | 1 | inactive |  | 
16 | O=C(CC1CC2CCC1C2)Nc1cc(NC(=O)c2ccc3c(c2)OCO3)ccc1F (stereo unspecified) | 78% | 0.79 | inactive |  | 
17 | CCc1nc2ccccc2n1CCOc1ccc(Br)cc1 | 81% | 0.89 | inactive |  | 
18 | COc1cc(F)c(S(=O)(=O)Nc2ccc3c(c2)OC2(CCCCC2)O3)cc1OC | 85% | 0.93 | inactive |  | 
19 | CCN(CC)S(=O)(=O)c1cc2c(cc1Br)NC(=O)CO2 | 92% | 1.02 | inactive |  | 
20 | CSCCSc1nnc(-c2ccccc2)n1-c1ccc(Cl)cc1 | 81% | 0.92 | inactive |  | 
21 | C=CCn1c(C)cc(C(=O)COc2ccc3oc4c(c3c2)CCCC4)c1C | 84% | 0.97 | inactive |  | 
22 | N#CCSc1nc2sc3c(c2c(=O)n1C1CCCC1)CCCC3 | 80% | 0.98 | inactive |  | 
23 | CCOC(=O)C1SC(SCc2cc(C(=O)OC)c(C)o2)=NC1=O (stereo unspecified) | 99% | 1.01 | inactive |  | 
24 | CN1C(=O)C(=O)N(CCOc2ccc(Cl)cc2Br)C1=O | 90% | 0.98 | inactive |  | 
25 | Clc1ccc(-c2csc(NC3CC3)n2)cc1Cl | 99% | 0.91 | inactive |  | 

Row | Structure (SMILES) | viability [1] | fold increase [2] | outcome [2] | min viability [1] | max fold increase [2]
26 | CC(c1nc(C(C)(C)C)no1)N1CCN(c2ccccc2F)CC1 (stereo unspecified) | 87% | 0.89 | inactive |  | 
27 | CC(=O)c1c(C)[nH]c(C(=O)C(C)N2CCN(C(=O)C3CC3)CC2)c1C (stereo unspecified) | 78% | 0.82 | inactive |  | 
28 | CS(=O)(=O)N1CCN(c2ccc(Br)cc2[N+](=O)[O-])CC1 | 103% | 0.92 | inactive |  | 
29 | Cc1cc(C(=O)OC(C)C(N)=O)c(C)n1CC(F)(F)F (stereo unspecified) | 88% | 1.05 | inactive |  | 
30 | Cc1cc(CN2CCN(CCS(=O)c3ccccc3)CC2)on1 (stereo unspecified) | 90% | 1.09 | inactive |  | 
31 | C=CCn1c(-c2cccnc2)nn(CN2CCc3ccccc3C2)c1=S | 111% | 1.12 | inactive |  | 
32 | CN1N=C(C(=O)Nc2ccc3c(c2)OC2(CCCC2)O3)CCC1=O | 92% | 0.97 | inactive |  | 
33 | Cc1cc(C)n2nc(SCC(=O)c3ccc(Br)cc3)nc2n1 | 76% | 0.93 | inactive |  | 
34 | CC1CCc2c(sc3nc(-c4cccnc4)nc(N4CCNC(=O)CC4)c23)C1 (stereo unspecified) | 84% | 0.94 | inactive |  | 
35 | COc1ccc(C23CC4CC(CC(C(=O)OC5CCOC5=O)(C4)C2)C3)cc1 (stereo unspecified) | 108% | 1.12 | inactive |  | 
36 | Cc1ccc(-c2nc(-c3ccc(C(C)(C)C)cc3)c(C)s2)cc1 | 96% | 1.12 | inactive |  | 
37 | N#CC1(c2nc3ccccc3s2)Cc2cc([N+](=O)[O-])ccc2N2CCCCC21 (stereo unspecified) | 88% | 1.17 | inactive |  | 
38 | CN1CCN(S(=O)(=O)c2ccc(Sc3ccc(Br)cc3)nc2)CC1 | 79% | 0.92 | inactive |  | 
39 | CCCNC(=O)C(C)NC(=O)Cc1c(C)nc2nc(N)nn2c1C (stereo unspecified) | 99% | 1.14 | inactive |  | 
40 | Cc1nn2c(nc(NC3CCCN(C)C3)c3ccccc32)c1Cl (stereo unspecified) | 72% | 2.03 |  | 70.3% [measured here: HeLa viability, alamarBlue, dose 10, library dosed in µg/mL] | 1.32 [dose 0.039, library dosed in µg/mL, stronger effect = higher value] (inactive)
41 | O=c1oc2ccccc2n1CN1CCCC(O)C1 (stereo unspecified) | 85% | 0.95 | inactive |  | 
42 | O=[N+]([O-])c1cc2c(c(CSc3nnnn3-c3ccc(Cl)cc3)c1)OCOC2 | 91% | 1.01 | inactive |  | 
43 | CN(Cc1nc2ccsc2c(=O)[nH]1)C(=O)CCc1nnc(-c2ccsc2)o1 | 87% | 1.17 | inactive |  | 
44 | N#Cc1c(/C=C/c2ccc3c(c2)OCCO3)cc(-c2cccc(Cl)c2)n2c1nc1ccccc12 | 99% | 1.16 | inactive |  | 
45 | CC(C)CN1CC(C(=O)Nc2ccc3c(c2)OC2(CCCC2)O3)CC1=O (stereo unspecified) | 83% | 1.08 | inactive |  | 
46 | O=C(OCc1cc(Cl)c2c(c1)OCO2)c1ccco1 | 90% | 0.99 | inactive |  | 
47 | O=C(Cn1ncc(Cl)c(Cl)c1=O)N1CCNC1=O | 78% | 1.56 |  | 70% | 3.11 (inactive)
48 | CCOCCCNc1sc(S(C)(=O)=O)nc1S(=O)(=O)c1ccc(C)cc1 | 93% | 1.05 | inactive |  | 
49 | CC(C#N)Sc1nnnn1-c1ccc(Cl)cc1 (stereo unspecified) | 98% | 0.96 | inactive |  | 
50 | C=CCOc1ccccc1/C=C(/C#N)c1nc(N)nc(N(C)C)n1 | 85% | 1.09 | inactive |  | 

Row | Structure (SMILES) | viability [1] | fold increase [2] | outcome [2] | min viability [1] | max fold increase [2]
51 | N#Cc1ccc(/C=C2\CSc3ccccc3C2=O)cc1 | 56% | 0.79 | inactive |  | 
52 | CC1(c2ccc3c(c2)OCO3)NC(=O)N(Cc2ccc3c(c2)OCO3)C1=O (stereo unspecified) | 100% | 0.99 | inactive |  | 
53 | CS(=O)(=O)NC1CCN(CC(=O)NC2CC2)CC1 | 105% | 1.17 | inactive |  | 
54 | S=c1n(CN(C2CCCC2)C2CC2)nc(N2CCOCC2)n1-c1ccccc1 | 102% | 1.03 | inactive |  | 
55 | CC(C)N1C(=O)c2ccc(C(=O)Nc3ccc(I)cc3)cc2S1(=O)=O | 92% | 0.96 | inactive |  | 
56 | Cc1cnc(NC(=O)COCC2CC2)s1 | 100% | 1.01 | inactive |  | 
57 | CCN1C(=O)c2ccccc2N2C(=O)CCC12C(=O)NC(C)c1ccc(F)cc1 (stereo unspecified) | 97% | 0.96 | inactive |  | 
58 | CCC(C)(C)NCC(=O)N1c2ccccc2NC(=O)C1(C)C | 93% | 1.11 | inactive |  | 
59 | NC(=O)C1CCCN1S(=O)(=O)c1ccc(Cl)s1 (stereo unspecified) | 97% | 1.06 | inactive |  | 
60 | Cn1ncc2c(NCC(=O)NC(C)(C)C)ncnc21 | 91% | 1.05 | inactive |  | 
61 | CS(=O)(=O)c1ccc(Oc2ccc3c(c2)OCCO3)c([N+](=O)[O-])c1 | 92% | 0.98 | inactive |  | 
62 | CCn1c(SCCS(=O)(=O)c2ccc(Br)cc2)nc2ccccc21 | 74% | 0.65 | inactive |  | 
63 | CN1CCN(C(=O)C2CCN(C(=O)OCC(F)(F)F)CC2)c2nc3ccccc3nc21 | 85% | 0.99 | inactive |  | 
64 | CN(C)S(=O)(=O)N1CCN(Cc2ccccc2CN2CCN(S(=O)(=O)N(C)C)CC2)CC1 | 94% | 0.9 | inactive |  | 
65 | CS(=O)(=O)NC1CCCN(c2nc(-c3ccccc3)nc3ccccc23)C1 (stereo unspecified) | 91% | 0.95 | inactive |  | 
66 | COc1cc(OC)cc(-c2nnc(SCCc3ccccc3)o2)c1 | 105% | 0.99 | inactive |  | 
67 | FC(F)(F)c1cnc(Nc2ccc3c(c2)OCCO3)c(Cl)c1 | 81% | 0.98 | inactive |  | 
68 | CC1CCC2(CC1)NC(=O)N(CN1CCC(C(=O)c3ccc4c(c3)OCCO4)CC1)C2=O (stereo unspecified) | 97% | 1.04 | inactive |  | 
69 | O=C(OCCOc1ccc(Br)cc1)C1(c2cccc(F)c2)CCCC1 | 77% | 0.97 | inactive |  | 
70 | C=CCn1c(C)cc(-c2csc(NC(=O)C3CC3)n2)c1C | 93% | 1.02 | inactive |  | 
71 | Cn1cc(C#N)c(=O)n(CC(=O)Nc2sccc2C(N)=O)c1=O | 104% | 1.07 | inactive |  | 
72 | O=S(=O)(Nc1ccc(Cl)c(S(=O)(=O)N2CCOCC2)c1)c1ccc2ccccc2c1 | 93% | 1.11 | inactive |  | 
73 | Cc1cc(C(=O)COc2cc(C(F)(F)F)cc(C(F)(F)F)c2)c(C)n1Cc1ccc2c(c1)OCO2 | 90% | 1.11 | inactive |  | 
